The assay deals with T1, mu-opioid receptors (coupling to G-proteins) (Rattus norvegicus, UniProt P33535).
T1 construct: fresh forebrains of four rats were pooled, gently homogenized; from tissue; host or cells: rat forebrain, synaptic plasma membrane (SPM) and microsomal (MI) fractions, from vehicle- or peptide-treated animals
The experiment in a line: DAMGO-stimulated [35S]GTPγS binding in rat brain subcellular fractions (SPM, MI) after in vivo chronic opioid peptide treatment. The format is biochemical. The procedure: The peptides were dissolved in artificial cerebrospinal fluid (CSF) and injected in a volume of 2 μL. […] Animals were killed 16 hrs after drug treatments by decapitation immediately followed by subcellular fractionation.
Subcellular fractions of rat brains were purified as published. Briefly, fresh forebrains of four rats were pooled, gently homogenized in 10 volumes (v/w) of ice-cold buffer (5 mM Tris-HCl pH 7.4, 50 μM CaCl2, 0.5 mM dithiothreitol), and supplemented with 10% sucrose. All sucrose solutions were made in the above buffer. The homogenate was spun at 1,000 ×g for 10 min. The resulting pellet was resuspended in the above buffer and spun again. The combined supernatants were spun at 12,000 ×g for 20 min. The pellets were suspended in 10% sucrose and subjected to consecutive centrifugations at 20,000 ×g for 25 min and 14,000 ×g for 20 min twice resulting in crude synaptic plasma membranes (SPM). The resulting pellets were lysed followed by fractionation on a 10%, 28.5%, and 34% sucrose density step gradient that was spun at 100,000 ×g for 2 h. Highly enriched SPMs were obtained from the 28/34% interface. Crude microsomal (MI) fractions were obtained from the 12,000 ×g supernatant by consecutive centrifugations at 20,000 ×g for 25 min and 100,000 ×g for 1 h. MI fractions were purified on a 10% and 28.5% sucrose step gradient centrifuged at 100,000 ×g for 2 h and collected at 10/28.5% interface. SPM and MI fractions were diluted threefold with 50 mM Tris-HCl buffer and pelleted at 100,000 ×g for 1 h to remove sucrose. The resulting pellets were taken up in 50 mM Tris-HCl (pH 7.4) buffer to yield in 0.3–0.8 mg membrane protein/ml and were freshly used.
The assay was performed as published with slight modifications. Briefly, rat brain membrane fractions (≈10 μg of protein) were incubated with [^35S]GTPγS (0.05 nM) and 5-6 concentrations (10^−9−10^−4 M) of opioid peptides in the presence of 100 μM GDP in Tris-EGTA (50 mM Tris-HCl, 1 mM EGTA and 5 mM MgCl2; pH 7.4) buffer in a total volume of 1 mL for 60 min at 30°C. Nonspecific binding was determined with 10 μM GTPγS and subtracted. […] Filters were rapidly washed with 3 × 5 mL ice-cold 50 mM Tris-HCl (pH 7.4) buffer, air-dried, and counted in a toluene-based scintillation cocktail in a Wallac 1409 scintillation counter (Wallac, Turku, Finland). […] Curves were constructed and analyzed by fitting sigmoidal dose-response curves using the GraphPad Prism 4 program (GraphPad Prism Software Inc) to obtain potency (EC50, concentration of the ligand to give half-maximal effect) and efficacy (E max, % maximal stimulation over basal activity) values. Basal activities were measured in the absence of opioid ligands and set as 0%. […]

Sequences of proteins named here, by UniProt entry; tags and fusion partners are left off.
UniProt P33535, whole entry: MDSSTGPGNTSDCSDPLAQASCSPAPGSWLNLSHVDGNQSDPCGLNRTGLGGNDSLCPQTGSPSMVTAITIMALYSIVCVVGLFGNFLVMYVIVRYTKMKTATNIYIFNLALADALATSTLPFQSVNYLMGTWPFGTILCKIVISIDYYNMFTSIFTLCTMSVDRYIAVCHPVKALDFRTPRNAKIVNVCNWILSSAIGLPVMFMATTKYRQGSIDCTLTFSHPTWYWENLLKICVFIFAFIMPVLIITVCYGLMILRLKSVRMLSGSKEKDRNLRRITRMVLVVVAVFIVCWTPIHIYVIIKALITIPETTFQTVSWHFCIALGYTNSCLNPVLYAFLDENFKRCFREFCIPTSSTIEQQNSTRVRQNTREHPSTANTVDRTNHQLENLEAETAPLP

Like-named read-outs stand apart in the source and are kept apart here.

Regarding `C[C@@H](NC(=O)[C@@H](N)Cc1ccc(O)cc1)C(=O)NCC(=O)N(C)[C@@H](Cc1ccccc1)C(=O)NCCO` [DAMGO, Tyr-D-Ala-Gly-(NMe)Phe-Gly-ol], the EC50 was 86 ± 2 nM (EC50 of DAMGO added in vitro, MI of rats chronically treated icv with the named peptide, read-out: EC50 (nM) MI Treated); 107 ± 14 nM (EC50 of DAMGO added in vitro, SPM of rats chronically treated icv with the named peptide, read-out: EC50 (nM) SPM Treated); 100 ± 18 nM (MI of vehicle administered rats, read-out: potency (EC50) of DAMGO in control MI); 44 ± 6 nM (SPM of vehicle administered rats, read-out: potency (EC50) of DAMGO in control SPM).

For the origin of these results see article PMC3857906, “Ligand-Specific Regulation of the Endogenous Mu-Opioid Receptor by Chronic Treatment with Mu-Opioid Peptide Agonists” (BioMed Research International, 2013).
